Experimental findings from ChEMBL document CHEMBL5126521, “Analgesic Opioid Ligand Discovery Based on Nonmorphinan Scaffolds Derived from Natural Sources” (J Med Chem, 2022) are described below.

Protein sequences, listed by entry. Tags and fused reporters are not part of them. Lines headed by an entry give the natural chain unless they say otherwise; changes in a name come on top.
UniProt P33534: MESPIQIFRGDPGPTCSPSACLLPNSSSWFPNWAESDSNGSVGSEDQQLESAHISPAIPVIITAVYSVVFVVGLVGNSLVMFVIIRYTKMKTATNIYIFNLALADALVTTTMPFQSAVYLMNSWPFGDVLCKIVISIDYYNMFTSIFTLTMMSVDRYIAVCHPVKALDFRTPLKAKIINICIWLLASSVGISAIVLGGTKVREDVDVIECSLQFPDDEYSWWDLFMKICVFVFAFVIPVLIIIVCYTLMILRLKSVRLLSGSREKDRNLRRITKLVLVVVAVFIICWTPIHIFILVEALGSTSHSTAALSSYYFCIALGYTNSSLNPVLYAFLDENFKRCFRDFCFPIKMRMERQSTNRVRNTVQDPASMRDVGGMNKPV

The target of assay [1] is T1, Kappa-type opioid receptor (Mus musculus, UniProt P33534). Put plainly: Agonist activity at C57BL6/J mouse brain KOP. In kind it is functional, tissue-based.
Assay [2] concerns the target T1, Kappa-type opioid receptor. Put plainly: Displacement of [3H]U69593 from C57BL6/J mouse brain KOP. In kind it is tissue-based. A general note: Loss of bound radioactivity is the signal in a displacement assay; it reports binding, not function.
The target of assay [3] is T1, Kappa-type opioid receptor. Put plainly: Agonist activity at C57BL6/J mouse brain KOP by calcium mobilization assay. In kind it is functional, tissue-based. On the technique in general: Calcium assays in cells follow changes in intracellular calcium, usually with a dye or a luminescent sensor.

`COC(=O)[C@@H]1C[C@H](OC(C)=O)C(=O)[C@H]2[C@@]1(C)CC[C@H]1C(=O)O[C@H](c3ccoc3)C[C@]21C` [SALVINORIN A]: the EC50 in assay [1] came to 6.9 nM; in assay [3], 104 nM. The same molecule came in with an inhibition constant (Ki) in assay [2] of 18.7 nM.

The term EC50 denotes the concentration at which the effect is half-maximal. What is called Ki is the equilibrium dissociation constant of an inhibitor or competing ligand from its target. A lower Ki goes with higher affinity.
